“And” between values parts separate entries of the source, which are not always exact repeats. Equal values may be shown once. This is a selection; strong and weak results do not stand in their true shares. The source made the active and inactive calls.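 The calls were made as follows: active = activation, scaled between plate controls, above about 75% (limit read from the data); inactive = activation under that limit.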
Assay: rescue of L929 cells from zVAD death – primary screen (AID 1377);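 also: 0% = zVAD with DMSO and 100% = DMSO alone without zVAD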
Settings: L929 zVAD necroptosis rescue, ATP luminescence, 24 h, at 10 µM, hits give high values; with zVAD 60 µM unless noted

Structure (SMILES) | viability rescue
C[C@H]1OP(=O)(Oc2ccccc2)[C@H](O)[C@H](O)[C@H]1N=[N+]=[N-] (stereo not given in full) | inactive: -0.48%
O=P(Nc1nc2ccccc2s1)(c1ccccc1)c1ccccc1 | inactive: 0.35%
O=P(Nc1ccccn1)(c1ccc(Br)cc1)c1ccc(Br)cc1 | inactive: 2.2%
O=C(OC1CN2CCC1CC2)c1cccc(Cl)c1 (stereo not given) | inactive: 1.58% [with zVAD 20 µM]
Nc1ccc([As](=O)(O)c2ccc([N+](=O)[O-])cc2)cc1 | inactive: 0.79%
C(Cc1nn[nH]n1)Cc1nn[nH]n1 | inactive: 0.17%
O=[As](O)(c1ccccc1)c1ccc(O)cc1 | inactive: -0.22%
O=[N+]([O-])c1ncn(CCn2cnc([N+](=O)[O-])n2)n1 | inactive: -0.17%
c1nnnn1CCn1cnnn1 | inactive: 0.04% [with zVAD 20 µM]
O=P(Nc1nccs1)(c1ccccc1)c1ccccc1 | inactive: -0.09% [with zVAD 20 µM]
CC(C)C(=O)NC(Sc1ccccc1)C(Cl)(Cl)Cl (stereo not given) | inactive: 0.52%
CC(C)(C)C(=O)NC(Sc1ccccc1)C(Cl)(Cl)Cl (stereo not given) | inactive: 0.82%
CCOc1ccc(C2=NCC(CBr)S2)cc1 (stereo not given) | inactive: -0.43%
O=P1(Nc2nc3ccc(Cl)cc3s2)COc2ccccc2O1 (stereo not given) | inactive: 2.74% [with zVAD 20 µM]
CC(=O)Nc1ccc(Oc2c([N+](=O)[O-])cc([N+](=O)[O-])cc2[N+](=O)[O-])cc1 | inactive: 1.21%
CC(=O)Nc1ccc([As](=O)(O)O)c(O)c1 | inactive: 1.69%
C[C@@H]1C=CCP(=O)(Oc2ccccc2)O1 (stereo not given in full) | inactive: 0.41%
C[C@H]1OP(=O)(Oc2ccccc2)C[C@@H]2O[C@@H]21 (stereo not given in full) | inactive: -0.36%
CCOC(=O)NC(Sc1ccccc1)C(Cl)(Cl)Cl (stereo not given) | inactive: 0.28% [with zVAD 20 µM]
Cc1ccc(NP(=O)(Oc2cccc(C)c2)Oc2cccc(C)c2)nc1 | inactive: 0.57%
c1ccc(-c2nn[nH]n2)c(-c2nn[nH]n2)c1 | inactive: 0.87%
O=C(NC1CCS(=O)(=O)C1)NP(=S)(Oc1ccccc1)Oc1ccccc1 (stereo not given) | inactive: 2.2%
CCNC(=S)/N=C(\N)N[N+](=O)[O-] | inactive: 1.15%
CN(C)C(=O)Oc1noc2ccccc12 | inactive: 0.07%

Structure (SMILES) | viability rescue
O=c1c2cc([N+](=O)[O-])ccc2[nH]c2c([N+](=O)[O-])cc([N+](=O)[O-])cc12 | inactive: 59.8%
Cc1ccccc1OP(=O)(Nc1ccccn1)Oc1ccccc1C | inactive: -0.33%
CCC(=O)N1C2C3N(C(=O)CC)C1C1N(C(=O)CC)C(C(N1C(=O)CC)N3C(=O)CC)N2C(=O)CC | inactive: -0.16% [with zVAD 20 µM]
Cc1ccc(OP(=O)(Nc2ccccn2)Oc2ccc(C)cc2)cc1 | inactive: -0.39%
COC(=O)c1cc2c(s1)N=C(c1ccccc1)N(C)P2(=O)N1CCOCC1 (stereo not given) | inactive: -0.00098% [with zVAD 20 µM]
Cc1ccc(NP(=O)(Oc2ccccc2F)Oc2ccccc2F)nc1 | inactive: 0.85%
CCOP(=O)(Nc1ccccc1)OCC | inactive: -0.68% and inactive: -1.08%
Cc1cc(SC(NC(=O)c2ccc(F)cc2)C(Cl)(Cl)Cl)ncn1 (stereo not given) | inactive: 0.38% [with zVAD 20 µM]
O=P(Nc1nc2ccc(Cl)cc2s1)(c1ccccc1)c1ccccc1 | inactive: 1.48%
O=C(O)c1ccccc1[As](=O)(O)O | inactive: 1.2%
CC(=O)Nc1ccc([As](=O)(O)O)cc1 | inactive: 0.03%
Nc1cccc2ccc([As](=O)(O)O)cc12 | inactive: 0.55%
CCN(N=Nc1nonc1N)c1nonc1N | inactive: -0.05%
Clc1ccc(Cl)c(NC2=NCC(CBr)S2)c1 (stereo not given) | inactive: -0.9%
CN1CCCC(OC(=O)C(c2ccccc2)c2ccccc2)C1 (stereo not given) | inactive: -0.22% [with zVAD 20 µM]
Cc1ccc(OP(=O)(Nc2nccs2)Oc2ccc(C)cc2)cc1 | inactive: -0.11%
COc1ccccc1OP(=O)(Nc1ccc(C)cn1)Oc1ccccc1OC | inactive: 1.77%
Cc1ccc(N/C(=N/P(=O)(N2CCOCC2)N2CCOCC2)N2CCOCC2)cc1 | inactive: 3.33%
NC(=O)c1cc([N+](=O)[O-])cc([N+](=O)[O-])c1N | inactive: 61%
Cc1c2non([O-])c-2c(C)[n+](=O)[n+]1[O-] | inactive: -0.75% [with zVAD 20 µM]
O=C(NC(Sc1ccncn1)C(Cl)(Cl)Cl)c1ccccc1 (stereo not given) | inactive: 1.28%
Oc1ccccc1CNc1ccccn1 | inactive: 1.75%
CC(C)CC(=O)NC(Sc1ccc(Cl)cc1)C(Cl)(Cl)Cl (stereo not given) | inactive: -0.03% [with zVAD 20 µM]
Nc1cc(N)c2nonc2c1[N+](=O)[O-] | inactive: 0.24%

Structure (SMILES) | viability rescue
O=[N+]([O-])c1cc([N+](=O)[O-])c(CCNc2ccccc2)c([N+](=O)[O-])c1 | inactive: 1.61%
CCc1nc2c(n1)c1c(non1O)c1c2no[n+]1[O-] | inactive: 28.5% [with zVAD 20 µM]
Cc1ccc(NP(=O)(Oc2ccccc2)Oc2ccccc2)nc1 | inactive: 3.42%
CC(=O)N1C2C3N(C(C)=O)C1C1N(C(C)=O)C(C(N1C(C)=O)N3C(C)=O)N2C(C)=O | inactive: -0.14% [with zVAD 20 µM]
O=[N+]([O-])c1cccc2n[nH]nc12 | inactive: 3.66%
COc1ccc(C2=NCC(CBr)S2)cc1 (stereo not given) | inactive: 1.26%
CC1CCN(C(=O)Oc2c(Cl)cc(Cl)c3cccnc23)CC1 | inactive: -0.41% [with zVAD 20 µM]
CN(C)C(=O)OCCc1n(C)cc[n+]1C | inactive: -0.32%
CC(C)=N/N=C(\N)N[N+](=O)[O-] | inactive: -0.5%
CCN(/C(=N/P(=O)(N1CCOCC1)N1CCOCC1)N1CCOCC1)c1ccc(OC)cc1 | inactive: 0.59%
C[N+]1=C2C=CC=CC=C2SC12C([N+](=O)[O-])=CC([N+](=O)[O-])=C[C-]2[N+](=O)[O-] (stereo not given) | inactive: -0.82%
Nc1ccc([As](=O)(O)c2ccc(N)cc2)cc1 | inactive: -0.03%
O=C(Nc1cc([As](=O)(O)O)ccc1O)c1ccccc1 | inactive: 1.33%
O=C(O)CNc1ccc([As](=O)(O)O)cc1 | inactive: 0.92%
O=[N+]([O-])c1cccc(NC2=NCC(CBr)S2)c1 (stereo not given) | inactive: -0.57%
O=[N+]([O-])c1ncn(CCn2ncnc2[N+](=O)[O-])n1 | inactive: 0.6%
CC(C)(C)C(=O)NC(Sc1ccncn1)C(Cl)(Cl)Cl (stereo not given) | inactive: 0.46%
Cc1cc(SC(NC(=O)c2ccccc2)C(Cl)(Cl)Cl)nc(C(C)C)n1 (stereo not given) | inactive: 0.89% [with zVAD 20 µM]
CCOC(=O)Nc1ccc([As](=O)(O)O)c(O)c1 | inactive: 0.58%
Cc1cc(SC(NC=O)C(Cl)(Cl)Cl)ncn1 (stereo not given) | inactive: 1%
O=P(Nc1ccccn1)(c1cccc2ccccc12)c1cccc2ccccc12 | inactive: 0.79%
O=[N+]([O-])c1ccc(Nc2ccc(Oc3ccc([N+](=O)[O-])cc3[N+](=O)[O-])cc2)c([N+](=O)[O-])c1 | inactive: -1.85%
CCOC(=O)Nc1cccc([As](=O)(O)O)c1 | inactive: 0.65%
O=C(COc1ccccc1)OC1CN2CCC1CC2 (stereo not given) | inactive: -0.32% [with zVAD 20 µM]

Structure (SMILES) | viability rescue
COP1(=S)c2c(C)nn(CCC#N)c2N=C(c2ccc(F)cc2)N1C (stereo not given) | inactive: -0.36% [with zVAD 20 µM]
CCC(C)N(CC(C)C)C(=S)SC(NC(C)=O)C(Cl)(Cl)Cl (stereo not given) | inactive: -0.63%
CCOC(=O)c1ccc(NC(=O)C(C)(CCl)SC)cc1 (stereo not given) | inactive: -0.46%
COc1cc(I)ccc1[As](=O)(O)O | inactive: -1.33%
COc1ccc2nc(NP(=O)(c3ccccc3)c3ccccc3)sc2c1 | inactive: 0.98%
Cc1c2c(nc3ccccc13)SC(C(Cl)Cl)C2 (stereo not given) | inactive: 0.92%
Cc1cc(=O)[nH]c(N[N+](=O)[O-])n1 | inactive: -0.09%
O=C(OC1CN2CCC1CC2)C12CC3CC(CC(C3)C1)C2 (stereo not given) | inactive: 0.76% [with zVAD 20 µM]
COc1ccc(N/C(=N/P(=O)(N2CCOCC2)N2CCOCC2)N2CCOCC2)cc1 | inactive: 0.51%
Cc1ccc(OP(=O)(Nc2ccc([N+](=O)[O-])cn2)Oc2ccc(C)cc2)cc1 | inactive: 0.56%
Cc1ccc2nc3c(c(C)c2c1)CC(C(Cl)Cl)S3 (stereo not given) | inactive: 1.07%
O=[As](O)(c1ccc(O)cc1)c1ccccc1O | inactive: 0.2%
C[As](=O)(O)c1cccc(C(=O)O)c1 | inactive: 1.37%
O=[N+]([O-])c1cc([N+](=O)[O-])c(-c2ccn[nH]2)s1 | inactive: 5.03%
CCN(CC)C(=S)SC(NC=O)C(Cl)(Cl)Cl (stereo not given) | inactive: -0.42% [with zVAD 20 µM]
CC(C)NC(=O)NP(=O)(Oc1ccccc1)Oc1ccccc1 | inactive: 1.47%
ClCCSc1nnc(-c2cccnc2)o1 | inactive: -0.18% [with zVAD 20 µM]
CC(C)c1ccc(OP(=O)(Nc2ccccn2)Oc2ccccc2F)cc1 (stereo not given) | inactive: 0.25%
O=C(O)COc1ccc([As](=O)(O)O)cc1[N+](=O)[O-] | inactive: 0.88%
Nc1ccccc1[As](=O)(O)c1ccccc1 | inactive: -0.18%
O=P(Nc1nccs1)(c1ccccc1)c1nc2ccccc2s1 (stereo not given) | inactive: -0.65%
O=P(Nc1nccs1)(Oc1ccccc1)Oc1ccccc1 | inactive: 0.36%
CCOP1(=S)c2c(C)nn(CCC#N)c2N=C(c2ccccc2F)N1C (stereo not given) | inactive: -0.32% [with zVAD 20 µM]

— PubChem BioAssay AID1377 (University of Pittsburgh Molecular Library Screening Center, 2008)
